Amino acid sequences for entries named in this document (tags omitted). Residues count along the entry.
UniProt P28907, 43-300 N100D/N164A/N209D/N219D limits assumed: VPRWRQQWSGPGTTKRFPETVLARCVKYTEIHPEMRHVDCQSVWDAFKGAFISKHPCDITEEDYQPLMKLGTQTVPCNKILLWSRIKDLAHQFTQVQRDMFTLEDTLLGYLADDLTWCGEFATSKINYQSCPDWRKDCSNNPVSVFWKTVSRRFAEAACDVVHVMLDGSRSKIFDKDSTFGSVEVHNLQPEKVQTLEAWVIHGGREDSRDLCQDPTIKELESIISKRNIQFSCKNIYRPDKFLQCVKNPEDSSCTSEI

According to article PMC4207131, “Cyclic Adenosine 5′-Diphosphate Ribose Analogs without a “Southern” Ribose Inhibit ADP-ribosyl Cyclase–Hydrolase CD38” (Journal of Medicinal Chemistry, 2014):

Target: CD38 catalytic domain (shCD38) (Homo sapiens, UniProt P28907, N100D/N164A/N209D/N219D)
Test: Inhibition of shCD38-mediated cADPR hydrolysis (fluorimetric cycling assay)
Type: biochemical
Parameters: incubating 1 μM cADPR with 1 μg/mL CD38 catalytic domain for 10 min; made in house
Settings: 1 μM cADPR, 1 μg/mL CD38 catalytic domain, 10 min, 20–24 °C, 25 mM sodium acetate pH 4.5
Experimental: The inhibition of cADPR hydrolysis by various concentrations of analog (0–1 mM) was determined by incubating 1 μM cADPR with 1 μg/mL CD38 catalytic domain for 10 min at 20–24 °C in 25 mM sodium acetate, pH 4.5. The reaction was stopped by the addition of 150 mM HCl. The precipitated protein was filtered, and the pH was neutralized with Tris base. After the mixture was diluted 20-fold, the concentration of the unhydrolyzed cADPR present in the diluted reaction mixture was assayed by the fluorimetric cycling assay as described previously.[52]

IC50: 33 µM
Structure (SMILES): O=c1c2ncn3c2ncn1[C@@H]1O[C@H](COP(=O)(O)OP(=O)(O)OCCCC3)[C@@H](O)[C@H]1O [compound 4, N1-Cyclic Hypoxanthine-N9-hydroxybutyl Diphosphate Ribose]
